{"source": "patent US20110112099A1", "about": "“THERAPEUTIC AGENT FOR CANCER RESISTANT TO PROTEASE INHIBITOR” (KYOWA HAKKO KIRIN CO., LTD., priority 2007, published 2011)", "origin": "cited, not measured here", "test_system": "breast cancer expressing Her2", "conditions": "clinical; cited from earlier work"}
{"substance": "trastuzumab", "values": [{"measurement": "Share of patients in whom a single medication is effective", "value": "30-40%"}]}
